Measured values from patent US5096884A, “Glidobactin PF-1 peptide antibiotics” (Bristol-Myers Squibb Company, priority 1990, dated 1992).

System: B16 Melanoma (ip)
Details: QD1→9, ≥125% significant
Procedure: In vivo antitumor activity of glidobactin PF-1 was determined in experimental mouse tumor systems. Female CDF1 and male BDF1 mice were intraperitoneally inoculated with 0.4 mL of diluted ascitic fluid containing 10^6 lymphocytic leukemia P388 cells and 0.5 mL of 10% melanotic melanoma B16 brei, respectively. Test compounds were intraperitoneally administered daily for 9 days starting from 1 day after the tumor implantation.

Compound: CO[C@@]12[C@H](COC(N)=O)C3=C(C(=O)C(C)=C(N)C3=O)N1C[C@@H]1N[C@@H]12 [Mitomycin C]
- T/C % of MST (B16, 0.13 mg/kg/day): 100%
- T/C % of MST (B16, 0.25 mg/kg/day): 134%
- T/C % of MST (B16, 0.5 mg/kg/day): 166%
- T/C % of MST (B16, 1 mg/kg/day): 200%

Read-outs that look alike come from different tables or passages of the source.
